Assay [1] deals with T1, human insulin receptor (IR-A) (Homo sapiens, UniProt P06213). The following applies: relative to affinity of human insulin; […] HSA in binding buffer. As to the method: The affinity of the acylated insulin analogues of this invention for the human insulin receptor is determined by a SPA assay (Scintillation Proximity Assay) microtiterplate antibody capture assay. SPA-PVT antibody-binding beads, anti-mouse reagent (Amersham Biosciences, Cat No. PRNQ0017) are mixed with 25 ml of binding buffer (100 mM HEPES pH 7.8; 100 mM sodium chloride, 10 mM MgSO4, 0.025% Tween-20). Reagent mix for a single Packard Optiplate (Packard No. 6005190) is composed of 2.4 μl of a 1:5000 diluted purified recombinant human insulin receptor (either with or without exon 11), an amount of a stock solution of A14Tyr[^125I]-human insulin corresponding to 5000 cpm per 100 μl of reagent mix, 12 μl of a 1:1000 dilution of F12 antibody, 3 ml of SPA-beads and binding buffer to a total of 12 ml. A total of 100 μl reagent mix is then added to each well in the Packard Optiplate and a dilution series of the insulin derivative is made in the Optiplate from appropriate samples. The samples are then incubated for 16 hours while gently shaken. The phases are the then separated by centrifugation for 1 min and the plates counted in a Topcounter. The binding data were fitted using the nonlinear regression algorithm in the GraphPad Prism 2.01 (GraphPad Software, San Diego, Calif.) and affinities are expressed relative (in percentage (%)) to the affinity of human insulin. […]

The chains behind the UniProt entries cited, without tags or fusion partners. Residues count along the entry.
UniProt P06213, 28-746 isoform P06213-2 limits assumed: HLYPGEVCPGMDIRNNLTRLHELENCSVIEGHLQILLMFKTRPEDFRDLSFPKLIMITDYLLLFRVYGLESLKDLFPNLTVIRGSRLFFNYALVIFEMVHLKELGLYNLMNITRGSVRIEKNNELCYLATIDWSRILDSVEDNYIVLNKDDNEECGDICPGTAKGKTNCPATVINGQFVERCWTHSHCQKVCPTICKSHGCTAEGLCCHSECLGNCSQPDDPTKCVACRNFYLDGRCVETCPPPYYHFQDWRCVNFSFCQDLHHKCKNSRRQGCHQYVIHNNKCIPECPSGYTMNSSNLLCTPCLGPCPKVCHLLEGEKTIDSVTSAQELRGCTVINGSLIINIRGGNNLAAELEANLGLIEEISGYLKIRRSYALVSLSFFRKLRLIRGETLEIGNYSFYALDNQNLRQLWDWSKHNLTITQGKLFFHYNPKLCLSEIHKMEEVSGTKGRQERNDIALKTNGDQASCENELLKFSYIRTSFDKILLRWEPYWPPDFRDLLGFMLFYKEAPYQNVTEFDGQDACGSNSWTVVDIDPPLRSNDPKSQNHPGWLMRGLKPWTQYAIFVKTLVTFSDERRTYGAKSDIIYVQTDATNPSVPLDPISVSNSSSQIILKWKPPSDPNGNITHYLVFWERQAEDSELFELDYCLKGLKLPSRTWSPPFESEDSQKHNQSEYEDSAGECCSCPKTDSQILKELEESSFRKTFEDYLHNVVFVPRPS
UniProt P06213, 763-1382 partner limits assumed: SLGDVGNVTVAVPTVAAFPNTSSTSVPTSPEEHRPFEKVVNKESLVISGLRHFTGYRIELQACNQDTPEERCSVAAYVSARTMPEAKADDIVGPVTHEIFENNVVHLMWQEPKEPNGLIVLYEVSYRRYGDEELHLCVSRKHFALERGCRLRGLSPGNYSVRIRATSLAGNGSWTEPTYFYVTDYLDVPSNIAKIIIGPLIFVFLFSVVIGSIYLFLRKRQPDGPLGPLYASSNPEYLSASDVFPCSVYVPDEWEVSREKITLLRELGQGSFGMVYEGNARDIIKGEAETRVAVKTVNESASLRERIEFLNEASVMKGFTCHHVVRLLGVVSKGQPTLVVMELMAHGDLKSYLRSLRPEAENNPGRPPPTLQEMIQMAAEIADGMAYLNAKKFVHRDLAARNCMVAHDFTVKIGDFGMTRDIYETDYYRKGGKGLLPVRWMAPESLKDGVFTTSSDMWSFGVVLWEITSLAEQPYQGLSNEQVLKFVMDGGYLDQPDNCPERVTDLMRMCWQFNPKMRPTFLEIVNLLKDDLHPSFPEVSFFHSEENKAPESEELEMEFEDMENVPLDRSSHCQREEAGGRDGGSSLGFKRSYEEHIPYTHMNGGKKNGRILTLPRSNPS

For assay [2], the target named is T1, human insulin receptor (IR-A). Nature of the assay: Insulin receptor affinity, SPA antibody capture assay, 0% HSA. In kind it is binding. The following applies: relative to affinity of human insulin. On the procedure: The affinity of the acylated insulin analogues of this invention for the human insulin receptor is determined by a SPA assay (Scintillation Proximity Assay) microtiterplate antibody capture assay. SPA-PVT antibody-binding beads, anti-mouse reagent (Amersham Biosciences, Cat No. PRNQ0017) are mixed with 25 ml of binding buffer (100 mM HEPES pH 7.8; 100 mM sodium chloride, 10 mM MgSO4, 0.025% Tween-20). Reagent mix for a single Packard Optiplate (Packard No. 6005190) is composed of 2.4 μl of a 1:5000 diluted purified recombinant human insulin receptor (either with or without exon 11), an amount of a stock solution of A14Tyr[^125I]-human insulin corresponding to 5000 cpm per 100 μl of reagent mix, 12 μl of a 1:1000 dilution of F12 antibody, 3 ml of SPA-beads and binding buffer to a total of 12 ml. A total of 100 μl reagent mix is then added to each well in the Packard Optiplate and a dilution series of the insulin derivative is made in the Optiplate from appropriate samples. The samples are then incubated for 16 hours while gently shaken. The phases are the then separated by centrifugation for 1 min and the plates counted in a Topcounter. The binding data were fitted using the nonlinear regression algorithm in the GraphPad Prism 2.01 (GraphPad Software, San Diego, Calif.) and affinities are expressed relative (in percentage (%)) to the affinity of human insulin.

Turning to `CC[C@H](C)[C@H](NC(=O)CN(C)C)C(=O)N[C@H](C(=O)N[C@@H](CCC(=O)O)C(=O)N[C@@H](CCC(N)=O)C(=O)N[C@H]1CSSC[C@@H]2NC(=O)[C@H]([C@@H](C)CC)NC(=O)[C@H](CO)NC(=O)[C@H]([C@@H](C)O)NC(=O)[C@H](CSSC[C@H](NC(=O)[C@H](CC(C)C)NC(=O)[C@H](Cc3c[nH]cn3)NC(=O)[C@H](CCC(N)=O)NC(=O)[C@H](CC(N)=O)NC(=O)[C@@H](NC(=O)[C@H](Cc3ccccc3)N(C)C)C(C)C)C(=O)NCC(=O)N[C@@H](CO)C(=O)N[C@@H](Cc3c[nH]cn3)C(=O)N[C@@H](CC(C)C)C(=O)N[C@@H](C(C)C)C(=O)N[C@@H](CCC(=O)O)C(=O)N[C@@H](C)C(=O)N[C@@H](CC(C)C)C(=O)N[C@@H](Cc3ccc(O)cc3)C(=O)N[C@@H](CC(C)C)C(=O)N[C@@H](C(C)C)C(=O)N[C@H](C(=O)NCC(=O)N[C@@H](CCC(=O)O)C(=O)N[C@@H](CCCNC(=N)N)C(=O)NCC(=O)N[C@@H](Cc3ccccc3)C(=O)N[C@@H](Cc3c[nH]cn3)C(=O)N[C@@H](Cc3ccc(O)cc3)C(=O)N3CCC[C@H]3C(=O)N[C@@H](CCCCNC(=O)COCCOCCNC(=O)COCCOCCNC(=O)CC[C@H](NC(=O)CCCCCCCCCCCCCCCCC(=O)O)C(=O)O)C(=O)O)CSSC[C@@H](C(=O)N[C@@H](CC(N)=O)C(=O)O)NC(=O)[C@H](Cc3ccc(O)cc3)NC(=O)[C@H](CC(N)=O)NC(=O)[C@H](CCC(=O)O)NC(=O)[C@H](CC(C)C)NC(=O)[C@H](CCC(N)=O)NC(=O)[C@H](CCC(=O)O)NC(=O)[C@H](CC(C)C)NC(=O)[C@H](CO)NC2=O)NC1=O)C(C)C` [Example 5, A1(N^α, N^α-Dimethyl), A14E, B1(N^α,N^α-dimethyl), B25H, desB27, B29K(N^εoctadecanedioyl-gGlu-2xOEG), desB30 human insulin], in assay [1], the “Relative IR-A affinity (@ […] HSA) (%)e” value was found to be 0.17%. The “Relative IR-A affinity (@ 0% HSA) (%)” value in assay [2] was found to be 1.7%.
In the case of `CC[C@H](C)[C@H](NC(=O)CNC(N)=O)C(=O)N[C@H](C(=O)N[C@@H](CCC(=O)O)C(=O)N[C@@H](CCC(N)=O)C(=O)N[C@H]1CSSC[C@@H]2NC(=O)[C@H]([C@@H](C)CC)NC(=O)[C@H](CO)NC(=O)[C@H]([C@@H](C)O)NC(=O)[C@H](CSSC[C@H](NC(=O)[C@H](CC(C)C)NC(=O)[C@H](Cc3c[nH]cn3)NC(=O)[C@H](CCC(N)=O)NC(=O)[C@H](CC(N)=O)NC(=O)[C@@H](NC(=O)[C@H](Cc3ccccc3)NC(N)=O)C(C)C)C(=O)NCC(=O)N[C@@H](CO)C(=O)N[C@@H](Cc3c[nH]cn3)C(=O)N[C@@H](CC(C)C)C(=O)N[C@@H](C(C)C)C(=O)N[C@@H](CCC(=O)O)C(=O)N[C@@H](C)C(=O)N[C@@H](CC(C)C)C(=O)N[C@@H](Cc3ccc(O)cc3)C(=O)N[C@@H](CC(C)C)C(=O)N[C@@H](C(C)C)C(=O)N[C@H](C(=O)NCC(=O)N[C@@H](CCC(=O)O)C(=O)N[C@@H](CCCNC(=N)N)C(=O)NCC(=O)N[C@@H](Cc3ccccc3)C(=O)N[C@@H](Cc3c[nH]cn3)C(=O)N[C@@H](Cc3ccc(O)cc3)C(=O)N3CCC[C@H]3C(=O)N[C@@H](CCCCNC(=O)CC[C@H](NC(=O)CCCCCCCCCCCCCCCCC(=O)O)C(=O)O)C(=O)O)CSSC[C@@H](C(=O)N[C@@H](CC(N)=O)C(=O)O)NC(=O)[C@H](Cc3ccc(O)cc3)NC(=O)[C@H](CC(N)=O)NC(=O)[C@H](CCC(=O)O)NC(=O)[C@H](CC(C)C)NC(=O)[C@H](CCC(N)=O)NC(=O)[C@H](CCC(=O)O)NC(=O)[C@H](CC(C)C)NC(=O)[C@H](CO)NC2=O)NC1=O)C(C)C` [Example 17, A1(N^αCarbamoyl), A14E, B1(N^αCarbamoyl), B25H, desB27, B29K(N^εoctadecandioyl-gGlu), desB30 human insulin], the “Relative IR-A affinity (@ 0% HSA) (%)” value in assay [2] amounted to 0.2%.

Values taken from US20140315797A1, “Novel N-Terminally Modified Insulin Derivatives” (priority 2010, published 2014).
